# Values of other authors as cited in patent US20240285702A1, “Compositions comprising a cannabinoid and uses thereof” (Cannabotech Ltd., priority 2021, published 2024).
# Details: at 37° C.
substance,measurement,value
D-α-tocopheryl polyethylene glycol 1000 succinate [TPGS],critical micelle concentration (CMC),0.02 weight %
